# scFv variants of Ab-91 (heavy chain) against a SARS-CoV-2 spike peptide

The target is the same throughout: PDVDLGDISGINAS, from the HR2 region of SARS-CoV-2 spike.

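Library AAYL51 holds single substitutions and randomly drawn double and triple substitutions in the CDRs. In AlphaSeq, yeast of one mating type display the scFv and yeast of the other type display the target. Binding brings cells together so that they mate, and sequencing counts the barcode pairs among the diploids. Each replicate has its own calibration line, from reference interactions of the BCL2 family. Each pool was mated in three replicate cultures.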

The variants keep the light chain, the linker and the frameworks of Ab-91 (scFv order VL, the linker GGGGSGGGGSGGGGS, VH).
VL: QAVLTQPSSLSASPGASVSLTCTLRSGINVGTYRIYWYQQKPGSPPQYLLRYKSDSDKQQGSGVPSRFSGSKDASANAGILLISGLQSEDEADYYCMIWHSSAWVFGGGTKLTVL
VH: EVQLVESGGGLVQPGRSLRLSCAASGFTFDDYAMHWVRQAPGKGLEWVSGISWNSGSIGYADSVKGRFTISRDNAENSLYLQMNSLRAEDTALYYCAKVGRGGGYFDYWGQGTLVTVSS

Changes read parent residue, position, new residue, counted from the first residue of the VH shown.
Each Kd is an estimate from the mating assay, the geometric mean of the replicates in which the pair was seen; lower is stronger.
A pair that was not seen in any replicate is written "nd"; this usually means weak binding, but a binder can also be missed.
Three control strains display no target. For library AAYL51, 21% of the pairings with them gave a signal, with a median of 34 µM and one signal in twenty below 1.8 µM, so weak values seen in few replicates may be background.

D30W+D31N+M34K: nd (0 of 3 replicates).
H35I+Y108A: 3.7 µM (3 of 3 replicates).
T28L+R101L+G104A: 56 µM (1 of 3 replicates).
D31Q+I51Y: 99 µM (1 of 3 replicates).
Y60S+V64G+G103A: nd (0 of 3 replicates).
F29C+V64L+R101W: nd (0 of 3 replicates).
V64A+K65Q+V99Y: nd (0 of 3 replicates).
S52I+D62H+G102P: nd (0 of 3 replicates).
T28W+R101V+G102R: nd (0 of 3 replicates).
Y32P+V99Y+G103I: nd (0 of 3 replicates).
D31L+N54S+G56P: 120 µM (2 of 3 replicates).
T28V+M34W+S63R: 11 µM (1 of 3 replicates).
D30I+G50A+Y105K: 5.9 µM (1 of 3 replicates).
S57E+I58W+A61M: 19 nM (3 of 3 replicates).
G26N+T28L+A61D: 290 µM (3 of 3 replicates).
F27N+Y32H+I58E: nd (0 of 3 replicates).
F29I+W53P+G100F: 20 nM (3 of 3 replicates).
S52Y+G56H+S57G: 210 µM (2 of 3 replicates).
G26A+D31I+Y108C: 12 µM (1 of 3 replicates).
I51C+G102I+F106E: 220 µM (2 of 3 replicates).
F29G+Y60W+D62V: 17 µM (1 of 3 replicates).
D62F+V64I: 2.0 µM (3 of 3 replicates).
G56M+Y105D+F106I: nd (0 of 3 replicates).
F29S+G103P+G104K: 18 µM (2 of 3 replicates).
V64P+K65T+Y108L: 6.6 µM (2 of 3 replicates).
F29T+D31Q+G104S: 7.7 µM (1 of 3 replicates).
T28F+H35S+K65A: 65 µM (3 of 3 replicates).
G26C+D30I+H35W: 13 µM (2 of 3 replicates).
A33C+M34H+I58R: 130 µM (3 of 3 replicates).
D30R+K65L+Y108R: 34 nM (3 of 3 replicates).
I51T+G100R+D107H: nd (0 of 3 replicates).
I58F+K65W: 310 nM (3 of 3 replicates).
S52L+S63Q+G103S: nd (0 of 3 replicates).
H35S+G59T+D107H: nd (0 of 3 replicates).
G26M+F27C+Y105A: 92 nM (3 of 3 replicates).
K65V+G104W: 1.6 µM (3 of 3 replicates).
W53R+K65P+G102D: nd (0 of 3 replicates).
F27V+Y60A+V64S: nd (0 of 3 replicates).
F27A+K65A+G100T: 210 µM (3 of 3 replicates).
K65P+G100D: 24 µM (2 of 3 replicates).
A33V+G102R+G103E: 89 µM (3 of 3 replicates).
Y32M+D62S: 12 nM (2 of 3 replicates).

Picked from the list: the 7 lowest averages where every replicate gave a value.

Variant S57E+I58W+A61M showed 19 nM (3 of 3 replicates).
Variant F29I+W53P+G100F showed 20 nM (3 of 3 replicates).
Variant D30R+K65L+Y108R showed 34 nM (3 of 3 replicates).
Variant G26M+F27C+Y105A showed 92 nM (3 of 3 replicates).
Variant I58F+K65W showed 310 nM (3 of 3 replicates).
Variant K65V+G104W showed 1.6 µM (3 of 3 replicates).
Variant D62F+V64I showed 2.0 µM (3 of 3 replicates).

Data: MIT Lincoln Laboratory AlphaSeq set, Engelhart et al. 2022, doi:10.1038/s41597-022-01779-4, as distributed in FLAb.